The source of these data is PMC8000448, “Inhibitory Effects of Schisandra Lignans on Cytochrome P450s and Uridine 5′-Diphospho-Glucuronosyl Transferases in Human Liver Microsomes” (Pharmaceutics, 2021).

Amino acid sequences for entries named in this document (tags omitted). A change or cut given only in a name is not applied to a line headed by its entry.
UniProt P10635, whole entry: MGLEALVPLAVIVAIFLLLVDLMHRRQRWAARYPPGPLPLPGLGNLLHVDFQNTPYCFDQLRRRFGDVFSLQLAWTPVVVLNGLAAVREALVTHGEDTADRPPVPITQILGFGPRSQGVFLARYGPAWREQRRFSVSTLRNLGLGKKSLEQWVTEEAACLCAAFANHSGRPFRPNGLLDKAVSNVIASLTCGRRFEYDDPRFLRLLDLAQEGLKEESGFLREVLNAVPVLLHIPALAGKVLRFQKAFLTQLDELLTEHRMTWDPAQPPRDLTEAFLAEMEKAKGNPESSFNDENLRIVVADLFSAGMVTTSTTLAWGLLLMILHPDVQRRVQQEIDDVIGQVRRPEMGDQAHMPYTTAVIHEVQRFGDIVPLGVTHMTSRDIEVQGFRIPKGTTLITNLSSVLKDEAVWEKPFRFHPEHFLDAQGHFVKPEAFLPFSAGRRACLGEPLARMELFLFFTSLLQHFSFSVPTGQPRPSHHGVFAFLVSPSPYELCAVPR
UniProt P11712, whole entry: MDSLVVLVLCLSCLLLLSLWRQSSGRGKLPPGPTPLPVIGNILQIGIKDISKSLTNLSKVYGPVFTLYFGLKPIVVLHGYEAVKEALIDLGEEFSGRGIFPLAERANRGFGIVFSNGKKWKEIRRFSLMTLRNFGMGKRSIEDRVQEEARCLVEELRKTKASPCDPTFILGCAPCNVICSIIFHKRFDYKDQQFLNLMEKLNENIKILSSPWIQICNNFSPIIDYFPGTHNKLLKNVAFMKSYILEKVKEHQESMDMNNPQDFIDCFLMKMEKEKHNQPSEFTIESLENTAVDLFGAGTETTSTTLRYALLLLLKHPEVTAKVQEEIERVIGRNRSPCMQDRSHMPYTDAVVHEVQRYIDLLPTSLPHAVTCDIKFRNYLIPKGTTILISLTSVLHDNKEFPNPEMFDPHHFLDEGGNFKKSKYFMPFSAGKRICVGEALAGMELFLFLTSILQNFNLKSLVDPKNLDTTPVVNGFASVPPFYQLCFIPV
UniProt P20813: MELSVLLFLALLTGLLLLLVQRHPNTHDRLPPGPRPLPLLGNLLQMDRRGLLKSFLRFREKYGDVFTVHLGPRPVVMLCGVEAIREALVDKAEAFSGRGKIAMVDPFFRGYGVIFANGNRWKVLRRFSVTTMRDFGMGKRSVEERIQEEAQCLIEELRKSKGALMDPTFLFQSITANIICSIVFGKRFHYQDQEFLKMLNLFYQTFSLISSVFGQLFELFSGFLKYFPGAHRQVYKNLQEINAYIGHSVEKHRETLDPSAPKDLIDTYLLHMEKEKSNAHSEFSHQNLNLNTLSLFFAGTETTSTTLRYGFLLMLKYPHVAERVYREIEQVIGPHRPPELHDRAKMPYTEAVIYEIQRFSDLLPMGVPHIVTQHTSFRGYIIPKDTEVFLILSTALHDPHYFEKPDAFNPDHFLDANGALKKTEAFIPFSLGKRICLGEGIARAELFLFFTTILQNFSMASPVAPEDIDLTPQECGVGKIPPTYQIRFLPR
UniProt P33261, whole entry: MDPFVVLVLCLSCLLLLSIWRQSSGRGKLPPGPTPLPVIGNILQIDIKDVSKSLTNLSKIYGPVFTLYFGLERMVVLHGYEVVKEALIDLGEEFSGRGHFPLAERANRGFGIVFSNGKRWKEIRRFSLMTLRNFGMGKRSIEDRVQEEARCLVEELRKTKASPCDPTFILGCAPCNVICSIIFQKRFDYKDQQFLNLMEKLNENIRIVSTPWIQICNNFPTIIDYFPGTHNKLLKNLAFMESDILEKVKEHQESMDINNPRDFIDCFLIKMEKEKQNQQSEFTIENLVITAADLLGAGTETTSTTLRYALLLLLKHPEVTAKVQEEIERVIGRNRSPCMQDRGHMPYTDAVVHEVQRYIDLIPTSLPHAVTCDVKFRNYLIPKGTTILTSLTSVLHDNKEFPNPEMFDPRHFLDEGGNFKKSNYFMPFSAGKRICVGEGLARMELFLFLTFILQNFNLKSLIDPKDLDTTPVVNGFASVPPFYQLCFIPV

One assay addresses T1, UGT1A1 (Homo sapiens, UniProt P22309).
T1 construct: pooled HLMs (0.25 mg/mL); tissue XenoTech H2630; host or cells: pooled human liver microsomes, mixed gender
T1 sequence (P22309 26-533): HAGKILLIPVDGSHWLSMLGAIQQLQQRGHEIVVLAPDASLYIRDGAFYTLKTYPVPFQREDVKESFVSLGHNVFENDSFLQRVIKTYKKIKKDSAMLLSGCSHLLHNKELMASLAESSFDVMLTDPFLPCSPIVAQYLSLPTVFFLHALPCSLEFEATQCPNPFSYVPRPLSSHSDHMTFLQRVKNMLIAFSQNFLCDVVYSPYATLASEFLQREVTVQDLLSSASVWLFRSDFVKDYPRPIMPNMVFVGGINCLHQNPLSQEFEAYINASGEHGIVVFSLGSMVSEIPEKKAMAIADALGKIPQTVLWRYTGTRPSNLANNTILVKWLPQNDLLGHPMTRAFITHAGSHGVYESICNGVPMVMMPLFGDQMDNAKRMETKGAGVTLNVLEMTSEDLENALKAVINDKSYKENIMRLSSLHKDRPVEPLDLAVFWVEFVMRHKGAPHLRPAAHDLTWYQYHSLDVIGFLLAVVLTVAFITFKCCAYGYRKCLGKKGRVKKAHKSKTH
Put plainly: UGT1A1 inhibition in HLMs (SN-38). It is filed as in vitro ADME. The conditions noted are these: average in triplicate, read-out: IC50, UGT 1A1. The protocol:
(§1) The inhibitory potential of six lignans on six UGT activities was evaluated using the previously developed cocktail method with slight modifications. […] These substrates are known to be selective for each UGT isoforms.

For the next assay, the target named is CYP2D6 (Homo sapiens, UniProt P10635). Put plainly: CYP2D6 inhibition in HLMs (dextromethorphan).
The target of another assay is CYP2C9 (Homo sapiens, UniProt P11712). Put plainly: CYP2C9 inhibition in HLMs (diclofenac). The conditions noted are these: for IC50 Shift, CYP2C9: RI/TDI fold shift.
The next assay concerns the target T2, UGT2B7 (Homo sapiens, UniProt P16662).
T2 construct: pooled HLMs (0.25 mg/mL); tissue XenoTech H2630; host or cells: pooled human liver microsomes, mixed gender
T2 sequence (P16662 24-529): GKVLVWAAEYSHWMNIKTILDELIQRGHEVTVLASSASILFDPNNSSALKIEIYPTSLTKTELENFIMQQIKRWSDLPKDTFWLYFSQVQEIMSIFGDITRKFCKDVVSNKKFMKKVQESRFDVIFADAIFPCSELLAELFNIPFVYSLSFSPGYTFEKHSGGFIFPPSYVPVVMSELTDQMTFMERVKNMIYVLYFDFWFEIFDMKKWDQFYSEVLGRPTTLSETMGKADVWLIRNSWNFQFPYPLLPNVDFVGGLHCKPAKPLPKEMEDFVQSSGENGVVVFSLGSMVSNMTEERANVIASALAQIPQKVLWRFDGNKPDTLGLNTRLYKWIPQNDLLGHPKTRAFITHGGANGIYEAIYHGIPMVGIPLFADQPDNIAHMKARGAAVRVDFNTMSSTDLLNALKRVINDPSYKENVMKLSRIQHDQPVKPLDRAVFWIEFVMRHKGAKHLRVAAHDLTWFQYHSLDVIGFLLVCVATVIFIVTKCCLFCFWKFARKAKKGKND
Put plainly: UGT2B7 inhibition in HLMs (naloxone). As to conditions: average in triplicate, read-out: IC50, UGT 2B6 (so in the source). It is filed as in vitro ADME. The protocol:
as §1

The target of the next assay is T3, UGT1A4 (Homo sapiens, UniProt P22310).
T3 construct: pooled HLMs (0.25 mg/mL); tissue XenoTech H2630; host or cells: pooled human liver microsomes, mixed gender
T3 sequence (P22310 29-534): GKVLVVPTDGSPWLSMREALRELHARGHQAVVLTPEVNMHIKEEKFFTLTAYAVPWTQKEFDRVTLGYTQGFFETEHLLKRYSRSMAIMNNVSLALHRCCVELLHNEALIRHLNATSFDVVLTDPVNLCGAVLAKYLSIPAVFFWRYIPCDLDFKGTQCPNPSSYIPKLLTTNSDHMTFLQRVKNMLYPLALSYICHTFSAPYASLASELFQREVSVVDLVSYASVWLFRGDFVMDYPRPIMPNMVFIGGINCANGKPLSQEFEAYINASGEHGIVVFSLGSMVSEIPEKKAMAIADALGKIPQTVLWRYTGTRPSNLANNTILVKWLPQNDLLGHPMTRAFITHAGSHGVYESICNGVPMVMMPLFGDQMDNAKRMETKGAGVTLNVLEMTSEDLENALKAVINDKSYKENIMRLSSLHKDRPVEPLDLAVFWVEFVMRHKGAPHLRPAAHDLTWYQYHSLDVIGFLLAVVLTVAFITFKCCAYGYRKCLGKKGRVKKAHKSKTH
Put plainly: UGT1A4 inhibition in HLMs (trifluoperazine). Format: in vitro ADME. As to conditions: average in triplicate, read-out: IC50, UGT 1A4. On the procedure:
as §1

A further assay concerns the target T4, CYP2B6 (Homo sapiens, UniProt P20813).
T4 construct: pooled HLMs (0.25 mg/mL); tissue XenoTech H2630; host or cells: pooled human liver microsomes, mixed gender
Put plainly: CYP2B6 inhibition in HLMs (bupropion). Format: in vitro ADME. The protocol:
(§2) Lignans were first dissolved in methanol. […] All microsomal incubations were performed in triplicate.

The target in another assay is CYP2C19 (Homo sapiens, UniProt P33261). Put plainly: CYP2C19 inhibition in HLMs (S-mephenytoin). As to conditions: for IC50 Shift, CYP2C19: RI/TDI fold shift.
For the next assay, the target named is T5, CYP2A6 (Homo sapiens, UniProt P11509).
T5 construct: pooled HLMs (0.25 mg/mL); tissue XenoTech H2630; host or cells: pooled human liver microsomes, mixed gender
T5 sequence (P11509 1-494): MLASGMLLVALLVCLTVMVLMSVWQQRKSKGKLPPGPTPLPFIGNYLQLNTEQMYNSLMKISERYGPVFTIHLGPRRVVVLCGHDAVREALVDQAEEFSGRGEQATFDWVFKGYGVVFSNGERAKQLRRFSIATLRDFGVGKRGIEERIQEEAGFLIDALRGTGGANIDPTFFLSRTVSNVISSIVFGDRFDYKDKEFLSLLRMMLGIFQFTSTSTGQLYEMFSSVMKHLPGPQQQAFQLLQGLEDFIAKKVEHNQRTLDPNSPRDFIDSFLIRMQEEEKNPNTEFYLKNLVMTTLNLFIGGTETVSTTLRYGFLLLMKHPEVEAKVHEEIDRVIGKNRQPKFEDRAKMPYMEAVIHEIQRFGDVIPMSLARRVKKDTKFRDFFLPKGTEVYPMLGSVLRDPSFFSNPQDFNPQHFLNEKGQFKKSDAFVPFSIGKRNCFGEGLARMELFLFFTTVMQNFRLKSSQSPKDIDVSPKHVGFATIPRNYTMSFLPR
Put plainly: CYP2A6 inhibition in HLMs (coumarin). It is filed as in vitro ADME. The protocol: as §2

The mark [1] stands for this setting: read-out: IC50 RI, CYP2D6, reversible inhibition.
The mark [2] stands for this setting: read-out: IC50 TDI, CYP2D6, 30 min pre-incubation with NADPH generating system.
Setting [3] is: read-out: IC50 RI, CYP2C9, reversible inhibition.
[4] abbreviates: read-out: IC50 TDI, CYP2C9, 30 min pre-incubation with NADPH generating system.
The mark [5] stands for this setting: 30 min pre-incubation with NADPH generating system, read-out: IC50 TDI, CYP2B6.
Where [6] appears, read: reversible inhibition, read-out: IC50 RI, CYP2B6.
Setting [7] is: read-out: IC50 RI, CYP2C19, reversible inhibition.
Setting [8] is: read-out: IC50 TDI, CYP2C19, 30 min pre-incubation with NADPH generating system.
[9] abbreviates: 30 min pre-incubation with NADPH generating system, read-out: IC50 TDI, CYP2A6.
Setting [10] is: reversible inhibition, read-out: IC50 RI, CYP2A6.

Several values for one entry are separate records, joined by “and”; a condition that tells them apart may be missing. Equal values may be shown once. Read-outs that look alike come from different tables or passages of the source.

With gomisin A, the IC50 on UGT1A1 is more than 50 µM; at CYP2D6 (setting [1]), 45.7 µM; on CYP2D6 (setting [2]), more than 50 µM; at CYP2C9 (setting [3]) it was 45.4 µM; at CYP2C9 (setting [4]) it was 22 µM; on UGT2B7, more than 50 µM. Also, the IC50 at UGT1A4 was more than 50 µM; at CYP2B6 (setting [5]), more than 50 µM; at CYP2B6 (setting [6]), more than 50 µM; at CYP2C19 (setting [7]) it was 11.2 µM; at CYP2C19 (setting [8]) it was ≤ 5 µM and 4.8 µM; at CYP2C19 (read-out: IC50 TDI, CYP2C19, 30 min pre-incubation with NADPH generating system, listed as gomisin A), less than 5 µM. The IC50 on CYP2A6 (setting [9]) and on CYP2A6 (setting [10]) was more than 50 µM throughout. Besides, the “IC50 Shift, CYP2C9” value on CYP2C9 is > 1.8 and 2.1. Moreover, on CYP2C19, the “IC50 Shift, CYP2C19” value is > 1.8 and 2.3.

Consider gomisin B, for which the half-maximal inhibitory concentration (IC50) is 20.7 µM on UGT1A1; 45.5 µM on CYP2D6 (setting [1]); more than 50 µM at CYP2D6 (setting [2]); 45.7 µM on CYP2C9 (setting [3]); more than 50 µM at CYP2C9 (setting [4]); more than 50 µM on UGT2B7. For the same substance, the concentration for half-maximal inhibition (IC50) is more than 50 µM at UGT1A4; more than 50 µM at CYP2B6 (setting [5]); 42.6 µM on CYP2B6 (setting [6]); more than 50 µM on CYP2C19 (setting [7]); 37.8 µM on CYP2C19 (setting [8]); more than 50 µM on CYP2A6 (setting [9]). The IC50 on CYP2A6 (setting [10]) was more than 50 µM. The “IC50 Shift, CYP2C9” value at CYP2C9 was “time-independent inhibition”. In addition, the “IC50 Shift, CYP2C19” value at CYP2C19 was “time-independent inhibition”.

By IC50 is commonly meant the concentration that inhibits the measured activity by half.
